# Legend:
# The chains behind the UniProt entries cited, without tags or fusion partners. Residues count along the entry.
# UniProt P05106, 27-788: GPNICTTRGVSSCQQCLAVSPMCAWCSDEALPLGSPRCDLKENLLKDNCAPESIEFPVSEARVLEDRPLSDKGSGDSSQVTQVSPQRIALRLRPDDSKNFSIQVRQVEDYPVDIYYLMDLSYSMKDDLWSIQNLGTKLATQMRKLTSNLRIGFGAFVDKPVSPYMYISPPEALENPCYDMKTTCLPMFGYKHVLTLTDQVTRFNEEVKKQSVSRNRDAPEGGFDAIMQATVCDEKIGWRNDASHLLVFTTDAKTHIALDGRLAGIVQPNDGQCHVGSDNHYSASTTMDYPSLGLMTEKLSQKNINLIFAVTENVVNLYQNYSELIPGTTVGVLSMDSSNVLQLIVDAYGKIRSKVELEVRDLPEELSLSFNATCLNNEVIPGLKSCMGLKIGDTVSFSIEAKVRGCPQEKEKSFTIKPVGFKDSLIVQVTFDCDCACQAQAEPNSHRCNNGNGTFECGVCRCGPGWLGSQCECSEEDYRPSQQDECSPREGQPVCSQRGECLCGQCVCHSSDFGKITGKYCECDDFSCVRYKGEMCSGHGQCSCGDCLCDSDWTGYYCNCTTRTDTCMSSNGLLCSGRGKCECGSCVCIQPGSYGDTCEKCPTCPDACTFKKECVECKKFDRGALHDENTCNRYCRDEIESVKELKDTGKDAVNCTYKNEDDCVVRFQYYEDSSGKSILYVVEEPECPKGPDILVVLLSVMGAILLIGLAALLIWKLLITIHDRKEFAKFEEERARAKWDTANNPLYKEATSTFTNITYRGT
# UniProt P06756, 891-1048 partner limits assumed: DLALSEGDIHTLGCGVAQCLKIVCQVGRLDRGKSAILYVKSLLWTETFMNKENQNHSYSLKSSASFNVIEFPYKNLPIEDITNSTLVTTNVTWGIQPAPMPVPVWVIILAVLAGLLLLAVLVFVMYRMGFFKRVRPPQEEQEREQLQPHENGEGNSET
# UniProt P06756, 31-889 limits assumed: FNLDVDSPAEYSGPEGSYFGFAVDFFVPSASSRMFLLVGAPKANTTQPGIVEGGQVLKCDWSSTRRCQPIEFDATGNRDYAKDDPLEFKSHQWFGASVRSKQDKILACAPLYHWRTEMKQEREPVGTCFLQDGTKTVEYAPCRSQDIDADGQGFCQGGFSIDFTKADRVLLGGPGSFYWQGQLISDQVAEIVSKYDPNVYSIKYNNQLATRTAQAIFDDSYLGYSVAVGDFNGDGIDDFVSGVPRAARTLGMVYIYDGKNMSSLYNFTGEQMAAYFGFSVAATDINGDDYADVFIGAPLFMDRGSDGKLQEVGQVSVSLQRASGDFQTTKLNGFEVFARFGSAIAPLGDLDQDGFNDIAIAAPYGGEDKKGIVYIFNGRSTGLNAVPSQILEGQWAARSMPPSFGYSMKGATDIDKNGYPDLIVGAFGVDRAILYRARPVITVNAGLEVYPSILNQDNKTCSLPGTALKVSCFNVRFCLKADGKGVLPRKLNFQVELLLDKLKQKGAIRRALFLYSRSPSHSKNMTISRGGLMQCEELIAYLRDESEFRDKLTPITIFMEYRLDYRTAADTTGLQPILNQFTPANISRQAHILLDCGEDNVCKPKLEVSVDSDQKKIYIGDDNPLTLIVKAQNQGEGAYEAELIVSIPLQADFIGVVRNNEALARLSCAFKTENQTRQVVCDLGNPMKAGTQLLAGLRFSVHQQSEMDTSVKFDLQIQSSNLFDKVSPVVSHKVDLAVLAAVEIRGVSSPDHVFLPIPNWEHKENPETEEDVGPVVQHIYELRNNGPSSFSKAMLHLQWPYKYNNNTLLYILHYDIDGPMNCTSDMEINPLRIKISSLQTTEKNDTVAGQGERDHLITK
# UniProt P08514, 32-887 limits assumed: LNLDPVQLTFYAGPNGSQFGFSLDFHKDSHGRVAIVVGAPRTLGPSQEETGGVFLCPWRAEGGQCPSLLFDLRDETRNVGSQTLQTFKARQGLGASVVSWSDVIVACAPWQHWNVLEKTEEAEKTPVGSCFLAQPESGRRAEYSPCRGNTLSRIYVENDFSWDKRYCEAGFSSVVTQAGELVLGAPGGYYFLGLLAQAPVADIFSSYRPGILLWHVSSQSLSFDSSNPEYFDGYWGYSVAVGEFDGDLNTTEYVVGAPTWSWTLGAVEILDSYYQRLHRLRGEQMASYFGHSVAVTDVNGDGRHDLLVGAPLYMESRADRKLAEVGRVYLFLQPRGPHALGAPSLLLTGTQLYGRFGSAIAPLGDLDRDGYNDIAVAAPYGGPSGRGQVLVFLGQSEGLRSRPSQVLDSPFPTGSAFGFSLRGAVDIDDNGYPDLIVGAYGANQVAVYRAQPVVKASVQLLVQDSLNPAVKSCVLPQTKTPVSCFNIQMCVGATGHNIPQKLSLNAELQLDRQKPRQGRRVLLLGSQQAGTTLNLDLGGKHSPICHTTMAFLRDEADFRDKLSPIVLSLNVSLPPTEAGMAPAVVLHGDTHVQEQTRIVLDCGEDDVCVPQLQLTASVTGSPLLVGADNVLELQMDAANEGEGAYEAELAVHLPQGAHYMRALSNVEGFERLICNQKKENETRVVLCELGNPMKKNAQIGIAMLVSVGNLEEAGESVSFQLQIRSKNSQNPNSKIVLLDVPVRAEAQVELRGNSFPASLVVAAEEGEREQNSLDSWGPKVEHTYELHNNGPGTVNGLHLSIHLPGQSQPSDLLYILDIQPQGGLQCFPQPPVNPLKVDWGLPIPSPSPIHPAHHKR
# UniProt P08514, 891-1039 partner limits assumed: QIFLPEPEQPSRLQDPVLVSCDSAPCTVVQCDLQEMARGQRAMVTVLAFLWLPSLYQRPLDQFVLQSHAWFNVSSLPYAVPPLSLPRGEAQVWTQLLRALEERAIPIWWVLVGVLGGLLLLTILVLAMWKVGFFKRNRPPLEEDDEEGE
# [1] = target: T1, Vitronectin receptor (Vn-R) (Homo sapiens, UniProt P05106+P06756); test: Liposome attachment assay for vitronectin receptor; details: purified receptor, read-out: VnR Binding (IC50)
# T1 construct: from (100 mM) octyl glucoside (OG) extracted human placenta; from tissue; host or cells: human placenta
# Procedure: Receptors were purified according to the procedures of Pytela et al. (Methods Enzymol. 144: 475 (1987)), incorporated herein by reference. […] After extraction, the suspension was filtered over a Sepharose 6B column and then applied to a GRGDSPK column. Except where stated, all procedures were carried out at 4° C. The peptide column was washed with three volumes of Tris-buffered saline (TBS) containing 1 mM Ca^2+ and 25 mM OG and then with TBS containing 1 mM Ca^2+ and 25 mM octyl thioglucoside (OTG) at room temperature. […] Finally, Ca^2+ and Mg^+2 were added to eluted fractions to achieve final concentrations of 1 mM for both ions.
# (§1) This assay was performed with minor modifications, according to the method of Pytela et al., Methods Enzymol. 144: 475 (1987), incorporated herein by reference. Briefly, 1:4 mixture of labelled and unlabelled phosphatidylcholine (PC) liposomes was dissolved under nitrogen and diluted with an equal volume of purified receptor (purified as described in Example II) to achieve a fixed predetermined receptor-liposome concentration ratio. This mixture was then dialyzed overnight at 4° C. in phosphate buffered saline (PBS) containing 1 mM Ca^2+. An aliquot of the dialyzed sample was counted to assess radioactive content; the receptor-liposome mixture was then diluted to obtain a set radioactivity per unit volume.
# Microtiter plates were coated with 10 μg of vitronectin. Non-specific sites were blocked for 2 hours at 37° C. in PBS containing 5 mg/ml BSA and 1 mM each of CaCl2 and MgCl2. The plates were then rinsed twice with PBS containing 1 mM Ca^+2 and Mg^+2, and 100 μl of the liposome-receptor mixture was added to each well. If necessary, peptides were added before this step in a 1-10% dilution. The plates were then incubated at 4° C. for 24 hours. The following day, the liquid in each well was aspirated and the plates were washed twice with PBS containing 1 mM Ca^+2 and Mg^+2. Finally, 100 μl of 2% SDS was added, the plates were shaken for 10-15 minutes, and the supernatants were collected, vortexed, and subjected to liquid scintillation counting. This procedure typically yielded ca. 1000 total and 100 non-specific counts per well.
# In parallel studies with the platelet aggregation experiments (described in Example V), the apparent affinities of peptides for GP IIb/IIIa, fibronectin and vitronectin receptors were determined. Receptor-binding assays (as described in Examples III and IV) with purified receptors, were used to assess the abilities of the peptides to displace the binding of receptors to their receptor-specific ligands.
# IC50 s for FnR were determined by ELISA (Example III). Those for VnR and GP IIb/IIIa were determined by liposome attachment assay (Example IV). The GRGDSP prototype peptide is used as a reference for comparison between assays for an individual peptide.
# GP IIb/IIIa = GP IIb/IIIa (Homo sapiens, UniProt P05106+P08514); test: Liposome attachment assay for GP IIb/IIIa; details: read-out: IIb/IIIa Binding (IC50)
# Procedure: as §1
# Microtiter plates were coated with 10 μg of vitronectin. Non-specific sites were blocked for 2 hours at 37° C. in PBS containing 5 mg/ml BSA and 1 mM each of CaCl2 and MgCl2. The plates were then rinsed twice with PBS containing 1 mM Ca^+2 and Mg^+2, and 100 μl of the liposome-receptor mixture was added to each well. […]
# In parallel studies with the platelet aggregation experiments (described in Example V), the apparent affinities of peptides for GP IIb/IIIa, fibronectin and vitronectin receptors were determined. […]
# IC50 s for FnR were determined by ELISA (Example III). Those for VnR and GP IIb/IIIa were determined by liposome attachment assay (Example IV). […]
Substance,IC50 [1],IC50 (GP IIb/IIIa)
GPenGRGDTPCA,0.47 µM,–
GPenLRGDSPCA,7.9 µM,–
RPenGHRGDWRCR,0.71 µM,–
RPenGRGDTPCA,5.6 µM,–
RPenGRGDTPCR,2.56 µM,–
RPenGRGDWPCR,–,0.43 µM
